# From ChEMBL document CHEMBL1131860
# Chains of the proteins cited; added tags and fusions are not shown.
# UniProt P97266, whole entry, looked up: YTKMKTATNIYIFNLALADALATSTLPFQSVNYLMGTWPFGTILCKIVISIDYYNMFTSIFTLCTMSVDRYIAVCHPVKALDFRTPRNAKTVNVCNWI
# Target: Mu-type opioid receptor (Cavia porcellus, UniProt P97266)
# Experiment: Binding affinity against Mu opioid receptor using [35S]GTP-gamma-S, binding assay in guinea pig caudate membranes in unblocked condition
smiles,measurement,value
CN(C(=O)Cc1ccccc1)[C@H]1CC[C@@]2(CCCO2)C[C@@H]1N1CCCC1,Kd,684 nM
